## scFv variants of Ab-91 (heavy chain) against a SARS-CoV-2 spike peptide

From the AlphaSeq antibody data of Engelhart et al. 2022 (doi:10.1038/s41597-022-01779-4), copy in the FLAb collection.

Target: peptide PDVDLGDISGINAS, taken from heptad repeat 2 (HR2) of SARS-CoV-2 spike.

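The starting antibody came from a phage panning campaign against this peptide. The library (AAYL51) carries one to three amino acid substitutions per variant, with no insertions or deletions. The scFvs were displayed on barcoded MATa yeast, the peptide on MATalpha yeast. Binding brings cells together so that they mate, and sequencing counts the barcode pairs among the diploids. A regression on co-assayed BCL2-family reference pairs converts the normalised counts of each replicate to an apparent Kd. There are three technical replicates.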

Parent: Ab-91, a human scFv built as VL, the linker GGGGSGGGGSGGGGS, VH. Only the CDRs of the heavy chain vary.
VL: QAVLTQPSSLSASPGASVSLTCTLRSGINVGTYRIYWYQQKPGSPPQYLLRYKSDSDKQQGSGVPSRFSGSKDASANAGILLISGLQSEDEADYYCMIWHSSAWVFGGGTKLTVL
VH: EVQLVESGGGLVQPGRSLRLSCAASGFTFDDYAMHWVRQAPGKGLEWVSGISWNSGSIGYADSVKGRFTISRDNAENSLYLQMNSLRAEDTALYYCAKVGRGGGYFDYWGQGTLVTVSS

Positions count from residue 1 of the parent VH; M34W puts W in place of M. Values are log10 of the apparent Kd in nM; lower means stronger binding. A mean of the replicates is given; it leaves out those without a signal. "ND" means that the variant was in the library but no mating with the target was seen in that replicate; the authors take this as a sign of poor binding, and no number exists. Parent in this assay: reference entry 1.86, copy in this library 0.88. Three control strains display no target. For library AAYL51, 21% of the pairings with them gave a signal, with a median of 4.54 and one signal in twenty below 3.26, so weak values seen in few replicates may be background. Also given: how often the same scFv was detected with the empty control strains.

The variant M34W+I51W+G102N gave ND, ND, ND (controls 0 of 9).
The variant M34H+H35K+I58T gave 0.68, 0.64, -0.08 (mean 0.41; controls 0 of 9).
The variant F27M+S57T+Y108M gave ND, ND, ND (controls 4 of 9).
The variant D31K+I58C+G102M gave 2.70, 3.14, 2.95 (mean 2.93; controls 2 of 9).
The variant H35C+G102L+G103K gave ND, ND, ND (controls 1 of 9).
The variant M34Y+K65M+G100W gave ND, ND, ND (controls 0 of 9).
The variant G50A+W53S+D62C gave 5.11, 5.57, ND (mean 5.34; controls 4 of 9).
The variant A33G+N54C+A61G gave 2.71, 3.33, 2.63 (mean 2.89; controls 4 of 9).
The variant M34N+Y60K+D62W gave 4.23, ND, 3.25 (mean 3.74; controls 2 of 9).
The variant I51G+S63T+Y108M gave ND, ND, ND (controls 0 of 9).
The variant H35C+Y60Q+D107W gave ND, ND, ND (controls 0 of 9).
The variant Y32N+F106D+Y108H gave ND, 3.31, ND (controls 1 of 9).
The variant A33P+G104S+D107N gave ND, ND, ND (controls 0 of 9).
The variant S63Q+G103I+Y108T gave ND, ND, ND (controls 2 of 9).
The variant F29C+I58Q gave 3.90, 4.24, ND (mean 4.07; controls 3 of 9).
The variant N54D+G102R+G103V gave ND, 4.91, ND (controls 2 of 9).
The variant G26M+S55Y+A61D gave 3.31, ND, ND (controls 2 of 9).
The variant Y32Q+I51E+I58T gave 5.26, 4.70, 4.11 (mean 4.69; controls 6 of 9).
The variant N54Q+G102Y gave ND, ND, ND (controls 5 of 9).
The variant D30K+W53P+I58F gave 1.19, 1.27, 0.46 (mean 0.97; controls 5 of 9).
The variant F27P+G50R+V99H gave 4.49, 5.30, ND (mean 4.89; controls 2 of 9).
The variant D30R+Y32E+W53I gave 4.14, ND, ND (controls 1 of 9).
The variant W53I+A61L+V99R gave ND, ND, ND (controls 1 of 9).
The variant Y32H+S52Y+D62L gave ND, ND, ND (controls 0 of 9).
The variant D30W+A61R+D62W gave 4.68, ND, ND (controls 2 of 9).
The variant G50F+G56Q+D107I gave 5.10, 4.75, 5.02 (mean 4.96; controls 7 of 9).
The variant G100C+G104Y+Y108M gave ND, ND, 3.91 (controls 1 of 9).
The variant W53L+I58V+Y108D gave 1.68, 1.81, 0.99 (mean 1.49; controls 3 of 9).
The variant F29Q+S57C+V64I gave ND, ND, ND (controls 1 of 9).
The variant S57W+V99P+G100F gave ND, ND, ND (controls 0 of 9).

The opening 3 entries, copied out:

changes	replicates, log10 nM	mean log10 Kd (nM)	control signals
M34W+I51W+G102N	ND, ND, ND	ND	0 of 9
M34H+H35K+I58T	0.68, 0.64, -0.08	0.41	0 of 9
F27M+S57T+Y108M	ND, ND, ND	ND	4 of 9